Apparent affinities of Ab-14 variants for a coronavirus HR2 peptide

Target: peptide PDVDLGDISGINAS, taken from heptad repeat 2 (HR2) of SARS-CoV-2 spike.

Each scFv is VH, a (GGGGS)3 linker, VL, as in the parent Ab-14, and differs from it in the CDRs of the light chain only.
VH: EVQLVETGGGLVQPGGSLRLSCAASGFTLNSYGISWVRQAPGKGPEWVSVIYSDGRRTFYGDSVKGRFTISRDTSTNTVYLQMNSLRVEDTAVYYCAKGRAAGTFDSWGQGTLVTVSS
VL: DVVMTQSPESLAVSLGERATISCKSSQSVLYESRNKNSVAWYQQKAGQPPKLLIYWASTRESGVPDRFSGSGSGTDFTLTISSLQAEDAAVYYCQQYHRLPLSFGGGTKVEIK

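Designed CDR sequences, proposed from the first random library and measured here. Group labels follow the data file (Ctrl: baseline library sampled from a position-specific scoring matrix, with some repeated check sequences; GP: Gaussian process model; HC: hill climbing; Gen: genetic algorithm; Gibbs: Gibbs sampling; a sequence that several methods proposed may carry one label only). In AlphaSeq, yeast of one mating type display the scFv and yeast of the other type display the target. Pairs that bind mate more often; barcode pairs of the diploids are counted by sequencing. The ratio of observed to expected reads was calibrated, replicate by replicate, on BCL2-family standards whose Kd was known from biolayer interferometry. The assay was run in six technical replicates.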

The parent's light chain CDRs are KSSQSVLYESRNKNSVA, WASTRES, QQYHRLPLS; each variant's own CDRs replace them letter for letter.
This list holds designs with at most six substitutions.
Affinities are written as log10 Kd with Kd in nM; a lower number is a better binder.
The mean shown is taken over the replicates in which the pair was detected.
The authors' rule: three or more of the six replicates give a measured affinity, fewer mean a poor binder.
Values of this round are not directly comparable with the first-round values of the same sequences.
Nonspecific signal, from three strains lacking the peptide, appeared in 4% of pairings of all light chain designs, centred on 2.64 (5% of these signals below 1.59); values are not corrected for it.

For KSSQSVGYESENDNSVA / WASTRES / QQYHRLPLS [Ctrl], the assay gave 1.53 (6 of 6 replicates). For KVSQSVLYENGTKNSVA / NASSRES / QQYHRLPLS [GP_HC], the assay gave 0.33 (6 of 6 replicates). With KISGSHLYESRNWNAVA / EASTRES / QQYHRLPLS [GP_Gibbs] the result was 0.21 (6 of 6 replicates). The variant KLEQSCLYESRNKNSVA / NASTRLS / QQYHRLPLS [GP_Gen] gave -0.01 (6 of 6 replicates). The variant KQSCSELYGSRNKNSVA / DASQRES / QQYHRLPLS [GP_Gibbs] showed -0.35 (6 of 6 replicates). The variant KSSQSVLYESSNNNSVA / WAFTRES / QQYHRLPLS [Ctrl] showed 2.59 (1 of 6 replicates). For KFEQSWLYESRNVNSVA / QASTRSS / QQYHRLPLS [GP_Gibbs], the assay gave -0.20 (6 of 6 replicates). For KLQQSTLYESRNKNSVA / SASTREE / QQYHRLPLS [GP_HC], the assay gave 0.03 (6 of 6 replicates). The variant KVSQSVLYESRNKNAVA / EASQRES / QQYHRLPLS [GP_Gen] showed -0.30 (6 of 6 replicates).

The variant KSSKSVLYESRGKNSVA / WASTRDS / QQPHRLPLS [Ctrl] showed 2.30 (1 of 6 replicates). With KSSSSVLYESRNENSVA / SASTRES / QQYHRLPLS [Ctrl] the result was 0.68 (6 of 6 replicates). With KSSQSVLYEQRNKNSVA / WASTRES / QQYHRLPES [Ctrl] the result was 1.46 (1 of 6 replicates). The variant KLPQSVLYESRNKNSVA / NASKRES / QQYHRLPLS [GP_Gen] showed 0.18 (6 of 6 replicates). For KMEQGWLYESRNKNSVA / GASVRES / QQYHRLPLS [GP_HC], the assay gave -0.22 (6 of 6 replicates). With KLSQSCLYESRNKNSVA / NASQRES / QQYHRLPLS [GP_Gen] the result was 0.81 (6 of 6 replicates). With KLKQSWLYESRNKNSVA / NASQRES / QQYHRLPLS [GP_Gen] the result was -0.28 (6 of 6 replicates). The variant KLQQSMGYESRNKNSVA / NASTRES / QQYHRLPLS [GP_Gen] showed 0.17 (6 of 6 replicates). The variant KVSQSYLYESRNKNSVA / EASTRES / QQYHRLPLS [GP_Gen] showed 0.28 (6 of 6 replicates).

For KSPQSVLYESRNKNSVA / WASTRES / QQYHRLPLS [Ctrl], the assay gave 2.37 (3 of 6 replicates). For KSSISQLYESRMKNSVA / EASTRES / QQYHRLPLS [GP_HC], the assay gave 0.57 (6 of 6 replicates). With KLPQSVLYESRNKNSVA / NASTRED / QQYHRLPLS [GP_Gen] the result was -0.05 (6 of 6 replicates). The variant KSSQSHLYESVNKNSVA / AASTRED / QQYHRLPLS [Ctrl] showed 0.04 (6 of 6 replicates). The variant KSSQSVLYESQNKNSVA / QAHTRES / QQYHRLPLS [Ctrl] gave 2.38 (2 of 6 replicates). The variant KSSQSVLYESRNKNSVA / WASTRES / QQYHILPVS [Ctrl] gave 2.65 (4 of 6 replicates). The variant KPSQSVLYESRNKNSVA / WASTRES / QQYHRLPLS [Ctrl] gave 2.20 (1 of 6 replicates). With KLRQQTLYESRNKNSVA / EASTREE / QQYHRLPLS [GP_HC] the result was -0.26 (6 of 6 replicates). With KVSQSVLYESRMKNSVA / DASTRCS / QQYHRLPLQ [GP_HC] the result was 0.08 (6 of 6 replicates).

The variant KSSQSVLYESRNKNSVA / WASTRES / QQVHRLPLS [Ctrl] showed 3.20 (3 of 6 replicates). The variant KLSQSVLYESRNTNSVA / NASTRET / QQYHRLPLS [Ctrl] gave -0.24 (6 of 6 replicates). The variant KSSQSYLYESGNKNSVA / DASTRES / QQYHRLPLS [GP_HC] gave -0.05 (6 of 6 replicates). For KMSQSHLYESRNKNSVA / DASTRES / QQYCRLPLS [Ctrl], the assay gave 0.20 (6 of 6 replicates). The variant KLSQSQLYESRNKNSVA / NASTRCS / QQYHRLPLS [GP_Gen] showed 0.08 (6 of 6 replicates).

Source: Li et al. 2023 (doi:10.1038/s41467-023-39022-2), MIT Lincoln Laboratory and A-Alpha Bio; data file from the FLAb repository.